Data as given in patent US9487511B2, “Cyclopropanamine compound and use thereof” (Takeda Pharmaceutical Company Limited, priority 2014, dated 2016).

By UniProt entry, the sequences of proteins in these tests, tags left out.
UniProt P21397, whole entry: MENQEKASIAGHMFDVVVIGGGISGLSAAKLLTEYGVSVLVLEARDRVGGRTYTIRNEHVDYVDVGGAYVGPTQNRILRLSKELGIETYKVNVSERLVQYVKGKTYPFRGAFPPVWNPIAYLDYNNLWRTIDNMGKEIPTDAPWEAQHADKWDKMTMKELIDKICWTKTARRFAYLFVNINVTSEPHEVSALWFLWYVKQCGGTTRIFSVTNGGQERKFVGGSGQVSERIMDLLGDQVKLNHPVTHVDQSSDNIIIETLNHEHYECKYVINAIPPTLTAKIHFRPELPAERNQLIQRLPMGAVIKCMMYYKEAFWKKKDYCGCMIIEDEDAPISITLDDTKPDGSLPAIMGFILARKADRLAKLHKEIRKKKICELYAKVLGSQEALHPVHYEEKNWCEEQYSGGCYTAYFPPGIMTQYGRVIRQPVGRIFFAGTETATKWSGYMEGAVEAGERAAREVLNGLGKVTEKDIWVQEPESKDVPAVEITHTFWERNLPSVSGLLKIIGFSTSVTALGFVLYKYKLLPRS
UniProt P27338, whole entry: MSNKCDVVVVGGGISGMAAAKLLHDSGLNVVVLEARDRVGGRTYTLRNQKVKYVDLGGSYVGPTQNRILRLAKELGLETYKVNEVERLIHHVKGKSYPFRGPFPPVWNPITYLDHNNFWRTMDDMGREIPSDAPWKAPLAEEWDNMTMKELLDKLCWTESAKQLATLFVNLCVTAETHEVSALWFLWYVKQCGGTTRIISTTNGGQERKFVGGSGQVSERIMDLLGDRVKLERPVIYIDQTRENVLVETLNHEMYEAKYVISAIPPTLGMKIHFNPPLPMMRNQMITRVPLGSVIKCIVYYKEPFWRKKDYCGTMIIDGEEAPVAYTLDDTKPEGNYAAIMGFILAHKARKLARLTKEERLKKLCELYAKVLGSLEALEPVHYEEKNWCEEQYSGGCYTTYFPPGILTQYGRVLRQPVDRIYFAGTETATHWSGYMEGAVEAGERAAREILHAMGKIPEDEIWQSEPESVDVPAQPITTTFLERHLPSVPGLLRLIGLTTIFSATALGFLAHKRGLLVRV

Key:
MAO-A enzyme = MAO-A enzyme (Homo sapiens (Human), UniProt P21397); assay: Measurement of MAO-A inhibitory activity (MAO-Glo Assay); assay type: biochemical
MAO-B enzyme = MAO-B enzyme (Homo sapiens (Human), UniProt P27338); assay: Measurement of MAO-B inhibitory activity (MAO-Glo Assay); assay type: biochemical

Compound: Cn1nc(C(=O)NC2CCC(F)(F)CC2)cc1[C@@H]1C[C@H]1NCC1CC1 (relative stereo) [Example 3, 5-(trans-2-((cyclopropylmethyl)amino)cyclopropyl)-N-(4,4-difluorocyclohexyl)-1-methyl-1H-pyrazole-3-carboxamide hydrochloride]
- IC50 (MAO-A enzyme): > 100 µM

Compound: Cn1nc(C(=O)NC2CCC(F)(F)CC2)cc1[C@@H]1C[C@H]1N (relative stereo) [Example 4, 5-(trans-2-aminocyclopropyl)-N-(4,4-difluorocyclohexyl)-1-methyl-1H-pyrazole-3-carboxamide hydrochloride]
- IC50 (MAO-B enzyme): > 100 µM

Compound: Cc1sc(C(=O)NC2CCC(F)(F)CC2)cc1[C@@H]1C[C@H]1NCC1CCOCC1 (relative stereo) [Example 8, N-(4,4-difluorocyclohexyl)-5-methyl-4-(trans-2-((tetrahydro-2H-pyran-4-ylmethyl)amino)cyclopropyl)thiophene-2-carboxamide hydrochloride]
- IC50 (MAO-B enzyme): > 100 µM

Compound: Cc1nnc(NC(=O)c2cc3c(c([C@@H]4C[C@H]4NCC4CC4)c2)OCC3)s1 (relative stereo) [Example 10, 7-(trans-2-((cyclopropylmethyl)amino)cyclopropyl)-N-(5-methyl-1,3,4-thiadiazol-2-yl)-2,3-dihydro-1-benzofuran-5-carboxamide dihydrochloride]
- IC50 (MAO-B enzyme): > 100 µM
- IC50 (MAO-A enzyme): > 100 µM

Compound: Cc1sc(C(=O)NC2CCC(F)(F)CC2)cc1[C@@H]1C[C@H]1NC1CCOCC1 (relative stereo) [Example 21, N-(4,4-difluorocyclohexyl)-5-methyl-4-(trans-2-(tetrahydro-2H-pyran-4-ylamino)cyclopropyl)thiophene-2-carboxamide fumarate]
- IC50 (MAO-B enzyme): 88 µM

Compound: O=C(NC1CCC(F)(F)CC1)c1cc([C@@H]2C[C@H]2NC2CCOCC2)cs1 (relative stereo) [Example 29, N-(4,4-difluorocyclohexyl)-4-(trans-2-(tetrahydro-2H-pyran-4-ylamino)cyclopropyl)thiophene-2-carboxamide hydrochloride]
- IC50 (MAO-B enzyme): > 100 µM

Compound: O=C(NC1CCOCC1)c1csc([C@@H]2C[C@H]2NCC2CC2)c1 (relative stereo) [Example 32, 5-(trans-2-((cyclopropylmethyl)amino)cyclopropyl)-N-(tetrahydro-2H-pyran-4-yl)thiophene-3-carboxamide hydrochloride]
- IC50 (MAO-B enzyme): > 100 µM
- IC50 (MAO-A enzyme): > 100 µM

Compound: O=C(NC1CCC(F)(F)CC1)c1nc([C@@H]2C[C@H]2NCC2CC2)cs1 (relative stereo) [Example 35, 4-(trans-2-((cyclopropylmethyl)amino)cyclopropyl)-N-(4,4-difluorocyclohexyl)thiazole-2-carboxamide hydrochloride]
- IC50 (MAO-B enzyme): > 100 µM

Compound: Cc1nnc(NC(=O)c2ccc([C@@H]3C[C@H]3NCC3CC3)s2)s1 (relative stereo) [Example 37, 5-(trans-2-((cyclopropylmethyl)amino)cyclopropyl)-N-(5-methyl-1,3,4-thiadiazol-2-yl)thiophene-2-carboxamide dihydrochloride]
- IC50 (MAO-A enzyme): 85 µM

Compound: Cc1nnc(NC(=O)c2cc([C@@H]3C[C@H]3NC3CCC3)cs2)s1 (relative stereo) [Example 57, 4-(trans-2-(cyclobutylamino)cyclopropyl)-N-(5-methyl-1,3,4-thiadiazol-2-yl)thiophene-2-carboxamide hydrochloride]
- IC50 (MAO-A enzyme): > 100 µM

Compound: Cn1cc(NC(=O)c2cc([C@@H]3C[C@H]3NC3CCC3)cs2)cn1 (relative stereo) [Example 61, 4-(trans-2-(cyclobutylamino)cyclopropyl)-N-(1-methyl-1H-pyrazol-4-yl)thiophene-2-carboxamide dihydrochloride]
- IC50 (MAO-B enzyme): > 100 µM
- IC50 (MAO-A enzyme): > 100 µM

Compound: O=C(NC1CCOCC1)c1cc([C@@H]2C[C@H]2NCC2CC2)cs1 (relative stereo) [Example 64, 4-(trans-2-((cyclopropylmethyl)amino)cyclopropyl)-N-(tetrahydro-2H-pyran-4-yl)thiophene-2-carboxamide hydrochloride]
- IC50 (MAO-B enzyme): > 100 µM

Compound: O=C(NC1CCOCC1)c1csc(C2CC2NC2CCC2)c1 (single isomer, unassigned) [Example 42, hydrochloride]
- IC50 (MAO-A enzyme): > 100 µM

Compound: O=C(NC1CCOCC1)c1csc(C2CC2NC2CCC2)c1 (single isomer, unassigned) [Example 43, hydrochloride]
- IC50 (MAO-A enzyme): > 100 µM

Compound: O=C(NC1CCOCC1)c1csc([C@@H]2C[C@H]2NCC2CC2)c1 [Example 71, 5-((1R,2R)-2-((cyclopropylmethyl)amino)cyclopropyl)-N-(tetrahydro-2H-pyran-4-yl)thiophene-3-carboxamide hydrochloride]
- IC50 (MAO-B enzyme): > 100 µM
- IC50 (MAO-A enzyme): > 100 µM

Compound: O=C(NC1CCOCC1)c1cc([C@H]2C[C@@H]2NCC2CC2)cs1 [Example 75, 4-((1R,2S)-2-((cyclopropylmethyl)amino)cyclopropyl)-N-(tetrahydro-2H-pyran-4-yl)thiophene-2-carboxamide hydrochloride]
- IC50 (MAO-B enzyme): > 100 µM

Compound: O=C(NC1CCOCC1)c1cc([C@@H]2C[C@H]2NCC2CC2)cs1 [Example 77, 4-((1S,2R)-2-((cyclopropylmethyl)amino)cyclopropyl)-N-(tetrahydro-2H-pyran-4-yl)thiophene-2-carboxamide hydrochloride]
- IC50 (MAO-B enzyme): > 100 µM

Compound: Cc1nnc(NC(=O)c2cc([C@@H]3C[C@H]3NCC3CC3)cs2)s1 [Example 82, 4-((1S,2R)-2-((cyclopropylmethyl)amino)cyclopropyl)-N-(5-methyl-1,3,4-thiadiazol-2-yl)thiophene-2-carboxamide dihydrochloride]
- IC50 (MAO-A enzyme): > 100 µM

Compound: Cc1nnc(NC(=O)c2cc([C@H]3C[C@@H]3NCC3CC3)cs2)s1 [Example 83, 4-((1R,2S)-2-((cyclopropylmethyl)amino)cyclopropyl)-N-(5-methyl-1,3,4-thiadiazol-2-yl)thiophene-2-carboxamide dihydrochloride]
- IC50 (MAO-A enzyme): > 100 µM

Compound: Cc1nnc(NC(=O)c2cc([C@H]3C[C@@H]3NC3CCC3)cs2)s1 [Example 85, 4-((1R,25)-2-(cyclobutylamino)cyclopropyl)-N-(5-methyl-1,3,4-thiadiazol-2-yl)thiophene-2-carboxamide dihydrochloride]
- IC50 (MAO-A enzyme): > 100 µM

Compound: Cn1cc(NC(=O)c2cc([C@@H]3C[C@H]3NC3CCC3)cs2)cn1 [Example 89, 4-((1S,2R)-2-(cyclobutylamino)cyclopropyl)-N-(1-methyl-1H-pyrazol-4-yl)thiophene-2-carboxamide dihydrochloride]
- IC50 (MAO-B enzyme): > 100 µM
- IC50 (MAO-A enzyme): > 100 µM

Compound: Cn1cc(NC(=O)c2cc([C@H]3C[C@@H]3NC3CCC3)cs2)cn1 [Example 90, 4-((1R,2S)-2-(cyclobutylamino)cyclopropyl)-N-(1-methyl-1H-pyrazol-4-yl)thiophene-2-carboxamide dihydrochloride]
- IC50 (MAO-B enzyme): > 100 µM
- IC50 (MAO-A enzyme): > 100 µM

Compound: Cc1sc(C(=O)NC2CCC(F)(F)CC2)cc1[C@@H]1C[C@H]1NC1CCOCC1 [Example 93, N-(4,4-difluorocyclohexyl)-5-methyl-4-((1S,2R)-2-(tetrahydro-2H-pyran-4-ylamino)cyclopropyl)thiophene-2-carboxamide fumarate]
- IC50 (MAO-B enzyme): > 100 µM

Compound: Cc1sc(C(=O)NC2CCC(F)(F)CC2)cc1[C@H]1C[C@@H]1NC1CCOCC1 [Example 94, N-(4,4-difluorocyclohexyl)-5-methyl-4-((1R,2S)-2-(tetrahydro-2H-pyran-4-ylamino)cyclopropyl)thiophene-2-carboxamide fumarate]
- IC50 (MAO-B enzyme): > 100 µM

Compound: Cc1sc(C(=O)Nc2cnn(C)c2)cc1[C@H]1C[C@@H]1NCC1CC1 [Example 103, 4-((1R,2S)-2-((cyclopropylmethyl)amino)cyclopropyl)-5-methyl-N-(1-methyl-1H-pyrazol-4-yl)thiophene-2-carboxamide dihydrochloride]
- IC50 (MAO-B enzyme): > 100 µM

Compound: O=C(NC1CCOCC1)c1csc([C@@H]2C[C@H]2NCC2CC2)c1 [Example 113, 5-((1R,2R)-2-((cyclopropylmethyl)amino)cyclopropyl)-N-(tetrahydro-2H-pyran-4-yl)thiophene-3-carboxamide malate]
- IC50 (MAO-B enzyme): > 100 µM
- IC50 (MAO-A enzyme): > 100 µM

Compound: O=C(NC1CCOCC1)c1csc([C@@H]2C[C@H]2NCC2CC2)c1 [Example 114, 5-((1R,2R)-2-((cyclopropylmethyl)amino)cyclopropyl)-N-(tetrahydro-2H-pyran-4-yl)thiophene-3-carboxamide succinate]
- IC50 (MAO-B enzyme): > 100 µM
- IC50 (MAO-A enzyme): > 100 µM

Compound: O=C(NC1CCOCC1)c1csc([C@@H]2C[C@H]2NCC2CC2)c1 [Example 115, 5-((1R,2R)-2-((cyclopropylmethyl)amino)cyclopropyl)-N-(tetrahydro-2H-pyran-4-yl)thiophene-3-carboxamide fumarate]
- IC50 (MAO-B enzyme): > 100 µM
- IC50 (MAO-A enzyme): > 100 µM

Compound: Cc1nnc(NC(=O)c2cc([C@@H]3C[C@H]3NC3CCC3)cs2)s1 [Example 116, 4-((1S,2R)-2-(cyclobutylamino)cyclopropyl)-N-(5-methyl-1,3,4-thiadiazol-2-yl)thiophene-2-carboxamide phosphate]
- IC50 (MAO-A enzyme): > 100 µM

Compound: O=C(NC1CCOCC1)c1csc([C@@H]2C[C@H]2NCC2CC2)c1 [Example 120, 5-((1R,2R)-2-((cyclopropylmethyl)amino)cyclopropyl)-N-(tetrahydro-2H-pyran-4-yl)thiophene-3-carboxamide]
- IC50 (MAO-B enzyme): > 100 µM
- IC50 (MAO-A enzyme): > 100 µM

Compound: Cc1sc(C(=O)Nc2cnn(C)c2)cc1[C@@H]1C[C@H]1NCC1CCC1 [Example 121, 4-((1S,2R)-2-((cyclobutylmethyl)amino)cyclopropyl)-5-methyl-N-(1-methyl-1H-pyrazol-4-yl)thiophene-2-carboxamide dihydrochloride]
- IC50 (MAO-A enzyme): > 100 µM

Compound: Cc1sc(C(=O)NC2CCOCC2)cc1[C@@H]1C[C@H]1NCC1CCC1 [Example 122, 4-((1S,2R)-2-((cyclobutylmethyl)amino)cyclopropyl)-5-methyl-N-(tetrahydro-2H-pyran-4-yl)thiophene-2-carboxamide hydrochloride]
- IC50 (MAO-B enzyme): > 100 µM

Compound: O=C(NC1CCOCC1)c1csc([C@H]2C[C@@H]2NCC2CC2)c1 [Example 125, 5-((1S,2S)-2-((cyclopropylmethyl)amino)cyclopropyl)-N-(tetrahydro-2H-pyran-4-yl)thiophene-3-carboxamide hydrochloride]
- IC50 (MAO-B enzyme): > 100 µM
- IC50 (MAO-A enzyme): > 100 µM

Where a name gives a salt, the structure may show the parent alone.
